This passage reports IC50 results from PMC8399180, “Bioactive Polyketide and Diketopiperazine Derivatives from the Mangrove-Sediment-Derived Fungus Aspergillus sp. SCSIO41407” (Molecules, 2021).

Protein sequences, listed by entry. Tags and fused reporters are not part of them. Residues count along the entry.
UniProt P22303, 32-614, species assumed: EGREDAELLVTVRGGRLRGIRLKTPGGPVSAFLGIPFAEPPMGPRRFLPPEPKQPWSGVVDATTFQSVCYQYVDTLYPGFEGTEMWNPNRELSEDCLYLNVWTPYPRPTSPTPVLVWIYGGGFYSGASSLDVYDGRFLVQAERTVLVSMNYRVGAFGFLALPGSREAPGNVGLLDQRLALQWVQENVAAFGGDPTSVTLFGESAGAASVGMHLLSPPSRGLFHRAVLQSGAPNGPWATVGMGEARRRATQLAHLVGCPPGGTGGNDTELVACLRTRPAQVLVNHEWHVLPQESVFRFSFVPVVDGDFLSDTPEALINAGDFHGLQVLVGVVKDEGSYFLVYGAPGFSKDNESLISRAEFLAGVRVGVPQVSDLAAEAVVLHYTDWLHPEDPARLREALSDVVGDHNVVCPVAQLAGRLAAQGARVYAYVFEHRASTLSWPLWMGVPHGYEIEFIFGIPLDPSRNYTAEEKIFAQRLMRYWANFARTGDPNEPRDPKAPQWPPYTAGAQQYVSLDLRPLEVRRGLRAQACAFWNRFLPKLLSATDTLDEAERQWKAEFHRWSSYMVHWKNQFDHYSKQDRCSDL

The assay has as its target acetylcholinesterase (AChE) (Homo sapiens, UniProt P22303). Put plainly: AChE inhibitory activity (modified Ellman method). The assay is classed as biochemical. As to the method: AChE inhibitory activity was evaluated in vitro according to the modified Ellman method. Briefly, 0.1 U/mL AChE solution was prepared by dissolving in phosphate buffer (pH 8.0). The test sample and enzyme buffer were mixed in 96-well plates and incubated for 20 min at 30 °C. Then, 5,5′-dithiobis (2-nitrobenzoic acid) and acetylthiocholine iodide were added, and the enzyme reaction was allowed to proceed for 30 min at 30 °C. AChE activity was determined by measuring the degradation of acetylthiocholine iodide to thiocholine and acetic acid at 405 nm using a microplate reader.

In general, IC50 refers to the point on the concentration scale where inhibition reaches its midpoint. A higher IC50 goes with weaker potency in that assay. Molecule `CCCCCCCCCCC[C@@H](C[C@@H]1OC(=O)[C@H]1CCCCCC)OC(=O)[C@H](CC(C)C)NC=O` [orlistat, reference compound] gave an IC50 of 0.33 µM.
